This assay deals with Somatostatin receptor type 4 (Homo sapiens, UniProt P31391). Type of assay: cell-based, CHO.

Sequences of proteins named here, by UniProt entry; tags and fusion partners are left off. A change or cut given only in a name is not applied to a line headed by its entry.
UniProt P31391: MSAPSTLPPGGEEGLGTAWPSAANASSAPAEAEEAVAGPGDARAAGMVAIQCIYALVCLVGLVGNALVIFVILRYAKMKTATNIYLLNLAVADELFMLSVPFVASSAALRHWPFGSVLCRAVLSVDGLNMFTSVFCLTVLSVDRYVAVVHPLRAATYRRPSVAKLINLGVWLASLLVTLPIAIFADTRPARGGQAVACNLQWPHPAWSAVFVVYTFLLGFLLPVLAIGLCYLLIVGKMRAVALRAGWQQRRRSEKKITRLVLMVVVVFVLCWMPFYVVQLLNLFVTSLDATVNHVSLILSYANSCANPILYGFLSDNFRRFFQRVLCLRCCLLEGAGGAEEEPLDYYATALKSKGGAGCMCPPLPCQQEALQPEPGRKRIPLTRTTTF

The term pIC50 denotes −log10 of the IC50, conventionally taken in molar units. Read a low pIC50 as a large IC50.

Molecules are shown by their SMILES. pIC50: −log10 of the molar value.

`Cc1nc([C@]2(c3cnn(C)c3)N[C@@H](c3nc(-c4ccc(F)cc4)c[nH]3)Cc3c2[nH]c2ccccc32)no1` showed a pIC50 of 6.42.

Source of the values: ChEMBL document CHEMBL2203114, “The Discovery of MK-4256, a Potent SSTR3 Antagonist as a Potential Treatment of Type 2 Diabetes” (ACS Med Chem Lett, 2012).
